In ChEMBL document CHEMBL1126934, “Non-peptide ligands for opioid receptors. Design of kappa-specific agonists” (J Med Chem, 1993):
pKi: −log10 of the molar value.

Sequences of proteins named here, by UniProt entry; tags and fusion partners are left off. A change or cut given only in a name is not applied to a line headed by its entry.
UniProt P41144: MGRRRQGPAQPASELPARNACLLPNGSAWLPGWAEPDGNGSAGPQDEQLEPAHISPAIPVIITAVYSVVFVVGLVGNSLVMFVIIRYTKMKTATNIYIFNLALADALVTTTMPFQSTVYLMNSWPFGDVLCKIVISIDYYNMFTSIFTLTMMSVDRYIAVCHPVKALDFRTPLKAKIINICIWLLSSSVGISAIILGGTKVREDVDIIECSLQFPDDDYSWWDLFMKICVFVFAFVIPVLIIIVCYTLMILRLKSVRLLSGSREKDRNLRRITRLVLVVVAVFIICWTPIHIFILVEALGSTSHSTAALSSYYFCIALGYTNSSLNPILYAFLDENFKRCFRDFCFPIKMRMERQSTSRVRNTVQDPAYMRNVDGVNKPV
UniProt P33535, whole entry, looked up: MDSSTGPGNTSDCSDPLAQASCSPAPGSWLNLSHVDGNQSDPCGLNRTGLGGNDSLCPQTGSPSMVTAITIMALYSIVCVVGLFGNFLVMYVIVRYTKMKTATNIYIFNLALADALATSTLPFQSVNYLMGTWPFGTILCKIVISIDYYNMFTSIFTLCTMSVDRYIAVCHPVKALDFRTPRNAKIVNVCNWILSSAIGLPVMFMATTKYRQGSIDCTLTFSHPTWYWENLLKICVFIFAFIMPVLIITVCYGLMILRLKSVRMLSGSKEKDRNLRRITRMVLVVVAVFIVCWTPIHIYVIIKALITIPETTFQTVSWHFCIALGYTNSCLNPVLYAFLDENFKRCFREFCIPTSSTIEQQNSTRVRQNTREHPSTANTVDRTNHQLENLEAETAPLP

Key:
Mus musculus [1] = experiment: Antinociceptive activity determined in vivo in tail flick assay in male Swiss mice with 2.0 mg/kg Naloxone
Mus musculus [2] = experiment: Antinociceptive activity determined in mouse tail flick assay 30 min after sc injection (peak effect)
Mus musculus [3] = experiment: Antinociceptive activity determined in vivo in tail flick assay in male Swiss mice with saline
[4] = target: T1, Kappa-type opioid receptor (Cavia porcellus, UniProt P41144); experiment: Binding affinity for kappa opioid receptor in absence of 120 mM NaCl and 50 micro M Gpp(NH)p
[5] = target: T1, Kappa-type opioid receptor; experiment: Binding affinity for kappa opioid receptor in presence of 120 mM NaCl and 50 micro M Gpp(NH)p
Mu-type opioid receptor = Mu-type opioid receptor (Rattus norvegicus, UniProt P33535); experiment: Binding affinity for mu opioid receptor was evaluated by displacing [3H]- diprenorphine
Mus musculus [6] = experiment: Antinociceptive activity determined in vivo in tail flick assay in male Swiss mice with 0.2 mg/kg Naloxone
[7] = target: T1, Kappa-type opioid receptor

## CN(C(=O)Cc1ccc(Cl)c(Cl)c1)C1CCCCC1N1CCCC1 (stereo not drawn)
Mus musculus [1]
  pKi: 9.82
Mus musculus [2]
  ED50: 4.52 mg/kg
Mus musculus [3]
  pKi: 9.00
[4]
  pKi: 7.78
[5]
  pKi: 6.69
Mu-type opioid receptor
  pKi: 5.67
Mus musculus [6]
  pKi: 9.11
[7]
  pKi: 7.69
